Measured values from publication PMC7201885 (The Journal of General Physiology, 2020).

Chains of the proteins cited; added tags and fusions are not shown. Lines headed by an entry give the natural chain unless they say otherwise; changes in a name come on top.
UniProt A7T1N0: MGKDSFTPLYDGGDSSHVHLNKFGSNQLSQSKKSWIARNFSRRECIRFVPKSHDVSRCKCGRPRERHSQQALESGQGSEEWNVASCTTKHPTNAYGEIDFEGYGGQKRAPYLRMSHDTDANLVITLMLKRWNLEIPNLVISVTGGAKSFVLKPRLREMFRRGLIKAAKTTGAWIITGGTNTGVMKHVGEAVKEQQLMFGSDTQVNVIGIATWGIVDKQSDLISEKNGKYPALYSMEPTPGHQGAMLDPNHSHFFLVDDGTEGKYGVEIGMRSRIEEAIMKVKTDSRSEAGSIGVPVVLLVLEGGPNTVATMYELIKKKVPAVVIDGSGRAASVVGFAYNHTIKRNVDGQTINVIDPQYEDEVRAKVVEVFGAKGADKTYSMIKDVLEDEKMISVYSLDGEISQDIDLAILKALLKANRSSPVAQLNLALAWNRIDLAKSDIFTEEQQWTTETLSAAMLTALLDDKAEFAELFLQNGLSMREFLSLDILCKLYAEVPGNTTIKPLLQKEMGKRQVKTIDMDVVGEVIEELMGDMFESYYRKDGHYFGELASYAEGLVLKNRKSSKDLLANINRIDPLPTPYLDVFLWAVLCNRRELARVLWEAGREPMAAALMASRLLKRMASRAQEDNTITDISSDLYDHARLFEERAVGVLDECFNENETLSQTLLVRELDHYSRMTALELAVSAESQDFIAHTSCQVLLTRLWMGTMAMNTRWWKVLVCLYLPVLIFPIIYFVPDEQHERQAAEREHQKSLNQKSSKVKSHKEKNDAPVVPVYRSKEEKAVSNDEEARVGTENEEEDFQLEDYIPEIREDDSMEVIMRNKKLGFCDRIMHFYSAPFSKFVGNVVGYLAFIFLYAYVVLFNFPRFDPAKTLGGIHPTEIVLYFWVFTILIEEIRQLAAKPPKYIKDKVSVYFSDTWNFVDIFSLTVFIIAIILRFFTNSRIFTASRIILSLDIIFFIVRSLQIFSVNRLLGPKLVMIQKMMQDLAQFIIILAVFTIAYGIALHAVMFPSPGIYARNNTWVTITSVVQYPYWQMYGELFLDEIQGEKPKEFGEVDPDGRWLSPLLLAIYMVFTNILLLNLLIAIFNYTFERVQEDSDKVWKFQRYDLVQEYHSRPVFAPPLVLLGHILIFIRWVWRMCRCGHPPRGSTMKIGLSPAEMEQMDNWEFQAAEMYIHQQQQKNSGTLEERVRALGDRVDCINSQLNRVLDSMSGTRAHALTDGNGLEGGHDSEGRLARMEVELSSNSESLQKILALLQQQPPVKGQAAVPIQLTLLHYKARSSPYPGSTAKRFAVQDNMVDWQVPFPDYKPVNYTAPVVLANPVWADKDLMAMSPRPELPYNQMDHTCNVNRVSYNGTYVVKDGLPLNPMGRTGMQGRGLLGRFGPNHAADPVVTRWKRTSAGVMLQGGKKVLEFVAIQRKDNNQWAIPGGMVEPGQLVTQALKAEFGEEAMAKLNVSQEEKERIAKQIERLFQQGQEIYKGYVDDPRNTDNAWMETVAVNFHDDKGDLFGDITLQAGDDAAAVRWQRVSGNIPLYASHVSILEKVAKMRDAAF

Columns and labels:
nvTRPM2 = nvTRPM2 (Nematostella vectensis, UniProt A7T1N0); assay: Inside-out patch-clamp, full-length; format: cell-based
hsTRPM2 = conditions: ref Moreau et al., 2013; cited from earlier work

Nc1ncnc2c1nc(Br)n2[C@@H]1O[C@H](COP(=O)(O)OP(=O)(O)OC[C@H]2O[C@H](O)C(O)[C@H]2O)C(O)[C@@H]1O (some centres unmarked) [Br-ADPR, 8-Br-ADPR]
Mode of action on nvTRPM2 (nvTRPM2; 125 µM Ca2+, compared with ADPR): partial agonist
Hill coefficient nH for channel activation (nvTRPM2; full-length nvTRPM2, 125 µM Ca2+): 1.6 ± 0.2
EC50 (nvTRPM2; read-out: EC50 for nvTRPM2 channel activation, full-length nvTRPM2, 125 µM cytosolic Ca2+, Hill fit, −20 mV): ~30 µM and 31.9 µM
Maximal fractional activation (nvTRPM2; relative to current in 100 µM ADPR, 125 µM Ca2+): 0.29 ± 0.01 and ~0.3
Mode of action on hsTRPM2 (hsTRPM2): specific hsTRPM2 inhibitor

Several values for one entry are separate records, joined by “and”; a condition that tells them apart may be missing. Equal values may be shown once.
